Source: patent US10214512B2, “Factor XIA inhibitors” (MERCK SHARP & DOHME CORP., priority 2015, dated 2019)

The chains behind the UniProt entries cited, without tags or fusion partners. Residues count along the entry.
UniProt P03951, 388-625 limits assumed: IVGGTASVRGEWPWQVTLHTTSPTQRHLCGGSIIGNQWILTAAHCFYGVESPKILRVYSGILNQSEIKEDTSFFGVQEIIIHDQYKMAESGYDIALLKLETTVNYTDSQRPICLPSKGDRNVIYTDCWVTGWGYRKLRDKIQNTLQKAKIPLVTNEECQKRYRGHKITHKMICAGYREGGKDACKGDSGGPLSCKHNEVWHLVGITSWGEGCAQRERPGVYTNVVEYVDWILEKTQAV
UniProt P03951, 19-387 partner limits assumed: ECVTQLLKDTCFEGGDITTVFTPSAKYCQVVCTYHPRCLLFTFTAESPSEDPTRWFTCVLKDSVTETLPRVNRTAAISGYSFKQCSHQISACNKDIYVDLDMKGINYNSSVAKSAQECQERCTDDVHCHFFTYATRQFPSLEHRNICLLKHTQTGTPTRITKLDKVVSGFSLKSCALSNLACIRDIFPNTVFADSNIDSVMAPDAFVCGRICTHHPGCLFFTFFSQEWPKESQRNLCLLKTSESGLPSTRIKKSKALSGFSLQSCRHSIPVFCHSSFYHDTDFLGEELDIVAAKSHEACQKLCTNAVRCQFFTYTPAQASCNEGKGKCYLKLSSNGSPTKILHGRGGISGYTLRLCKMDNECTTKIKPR
UniProt P03952, 391-638 limits assumed: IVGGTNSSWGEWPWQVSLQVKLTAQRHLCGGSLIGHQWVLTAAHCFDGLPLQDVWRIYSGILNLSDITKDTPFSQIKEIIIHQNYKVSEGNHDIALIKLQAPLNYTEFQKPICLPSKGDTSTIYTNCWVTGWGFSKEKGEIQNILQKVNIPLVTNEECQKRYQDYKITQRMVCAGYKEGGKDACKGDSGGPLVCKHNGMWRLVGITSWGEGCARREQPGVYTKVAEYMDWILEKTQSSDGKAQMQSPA
UniProt P03952, 20-390 partner limits assumed: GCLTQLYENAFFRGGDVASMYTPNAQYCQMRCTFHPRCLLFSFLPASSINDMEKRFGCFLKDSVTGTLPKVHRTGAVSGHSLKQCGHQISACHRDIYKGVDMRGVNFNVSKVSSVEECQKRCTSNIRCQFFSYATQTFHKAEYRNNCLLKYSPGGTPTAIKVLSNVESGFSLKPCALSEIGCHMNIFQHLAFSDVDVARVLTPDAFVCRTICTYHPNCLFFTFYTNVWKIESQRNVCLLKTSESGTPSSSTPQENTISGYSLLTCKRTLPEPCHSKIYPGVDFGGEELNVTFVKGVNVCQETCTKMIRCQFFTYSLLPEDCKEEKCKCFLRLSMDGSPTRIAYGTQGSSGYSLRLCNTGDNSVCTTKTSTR

Assays:
[1] = molecular target: purified human Factor XIa (Homo sapiens (Human), UniProt P03951); test: Factor XIa Assay; assay type: biochemical; details: read-out: Human FXIa Ki; purified human Factor XIa 40 pM; substrate Z-Gly-Pro-Arg-AFC 100 μM; 50 mM HEPES pH 7.4
[2] = molecular target: purified Human plasma Kallikrein (Homo sapiens (Human), UniProt P03952); test: Kallikrein Assay; assay type: biochemical; details: read-out: Human plasma Kallikrein Ki; purified Human plasma Kallikrein 0.5 nM; substrate Acetyl-K-P-R-AFC; 50 mM HEPES pH 7.4; Ki from IC50 by Cheng Prusoff

Ki [1] [pM]	Ki [2] [pM]	SMILES
110	430	COC(=O)Nc1ccc2c(c1)NC(=O)CCCC[C@H](c1ccc(-c3c(F)cccc3C(F)F)c[n+]1[O-])c1nc-2c(C)[nH]1
270	780	COC(=O)Nc1ccc2c(c1)NC(=O)CCCC[C@H](c1ccc(-c3c(F)ccc(F)c3F)c[n+]1[O-])c1nc-2c(C)[nH]1
